Source: patent publication US4622328A, “Phenyl-naphthyridines and drugs containing them, particularly anti-ulcer drugs” (priority 1984, dated 1986)

Test: in vivo
Details: fasting Sprague Dawley rat, oral route

## Cc1cc2cccnc2n(-c2ccccc2)c1=O [Example 11, 1-phenyl 1,2-dihydro 2-oxo 3-methyl 1,8-naphthyridine]
  LD50: 256 mg/kg
